{"sequences": {"note": "Amino acid sequences for entries named in this document (tags omitted). Residues count along the entry.", "UniProt G1TYT4, 1-1284": "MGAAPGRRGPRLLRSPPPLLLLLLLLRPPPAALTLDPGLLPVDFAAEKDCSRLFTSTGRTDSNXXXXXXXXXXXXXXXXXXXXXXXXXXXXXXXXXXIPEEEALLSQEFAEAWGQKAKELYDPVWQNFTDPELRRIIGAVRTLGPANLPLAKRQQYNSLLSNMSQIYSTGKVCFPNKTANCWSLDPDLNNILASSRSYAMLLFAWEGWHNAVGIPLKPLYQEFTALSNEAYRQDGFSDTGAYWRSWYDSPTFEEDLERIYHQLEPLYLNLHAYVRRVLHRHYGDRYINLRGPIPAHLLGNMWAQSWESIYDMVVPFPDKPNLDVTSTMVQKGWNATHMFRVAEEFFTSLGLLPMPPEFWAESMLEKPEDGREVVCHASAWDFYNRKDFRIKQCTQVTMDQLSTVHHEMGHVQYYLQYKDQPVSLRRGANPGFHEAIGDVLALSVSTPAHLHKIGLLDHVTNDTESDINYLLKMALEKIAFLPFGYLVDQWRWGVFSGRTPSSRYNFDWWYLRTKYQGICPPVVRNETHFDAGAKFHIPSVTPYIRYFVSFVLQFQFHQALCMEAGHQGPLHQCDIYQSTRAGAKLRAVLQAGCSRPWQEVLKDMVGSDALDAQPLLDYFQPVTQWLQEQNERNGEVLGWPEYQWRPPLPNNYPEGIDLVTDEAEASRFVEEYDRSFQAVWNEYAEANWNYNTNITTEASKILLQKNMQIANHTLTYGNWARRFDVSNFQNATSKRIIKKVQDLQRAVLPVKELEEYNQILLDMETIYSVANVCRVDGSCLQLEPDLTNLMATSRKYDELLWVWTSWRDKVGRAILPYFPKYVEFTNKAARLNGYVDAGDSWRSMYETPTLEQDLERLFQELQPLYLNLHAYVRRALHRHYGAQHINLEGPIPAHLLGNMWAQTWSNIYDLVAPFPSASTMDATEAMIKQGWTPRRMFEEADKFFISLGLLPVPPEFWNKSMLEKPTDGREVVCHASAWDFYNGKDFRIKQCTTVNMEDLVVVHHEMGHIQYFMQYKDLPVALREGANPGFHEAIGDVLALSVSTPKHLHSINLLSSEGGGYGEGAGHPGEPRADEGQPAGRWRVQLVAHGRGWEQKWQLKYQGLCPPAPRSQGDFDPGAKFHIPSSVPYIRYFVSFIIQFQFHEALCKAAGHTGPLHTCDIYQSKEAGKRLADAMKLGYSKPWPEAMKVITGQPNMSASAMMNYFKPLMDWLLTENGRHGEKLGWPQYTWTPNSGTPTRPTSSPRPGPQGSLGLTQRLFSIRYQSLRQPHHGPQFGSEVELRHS"}, "source": "paper PMC9355146", "about": "“Novel angiotensin-converting enzyme inhibitory peptides from tuna byproducts—milts: Preparation, characterization, molecular docking study, and antioxidant function on H2O2-damaged human umbilical vein endothelial cells” (Frontiers in Nutrition, 2022)", "origin": "cited, not measured here", "biological_target": "ACE (Oryctolagus cuniculus, UniProt G1TYT4)", "settings": "cited from earlier work", "note": "Like-named read-outs stand apart in the source and are kept apart here."}
{"molecule": "CC(C)[C@H](N)C(=O)N[C@@H](C)C(=O)N1CCC[C@H]1C(=O)O", "values": [{"measurement": "IC50 on ACE", "setting": "ACEi peptide from Ctenopharyngodon idella", "result": 1710, "unit": "µg/mL"}]}
{"molecule": "CC(C)[C@H](N)C(=O)N[C@@H](CC(=O)O)C(=O)O", "values": [{"measurement": "IC50 on ACE", "setting": "ACEi peptides from Antarctic krill", "result": 5610, "unit": "µg/mL"}]}
